Results on one molecule are retold here after US4593036A, “(-)-Trans-4-(4-fluorophenyl)-3-[(4-methoxyphenoxy)meth yl]-1-methylpiperidine useful as 5-HT potentiator” (priority 1984, dated 1986).

The test concerns 5-HT uptake. The experiment in a line: Test 173: potentiation of 5-HTP (5-hydroxytryptophane) induced hypermotility in mice (inhibition of 5HT uptake, or 5HT potentiation, test). Type of test: in vivo, mice (female, NMRI strain). Conditions: Mus musculus, sc, read-out: Test 173 (dose increasing the activity to double the activity found with controls receiving 5-HTP alone; ED50), s.c., 5-HTP 150 mg/kg i.p., motility 45-75 min after 5-HTP, water-soluble salt. An excerpt:
I. POTENTIATION OF 5-HTP (5-HYDROXYTRYPTOPHANE) INDUCED HYPERMOTILITY IN MICE
This behavior is characterized by continuous jerky locomotion, head movements from side to side, abduction of the hind limbs, tremor, and lordosis.
Therefore, increased 5-HT in brain seems to be necessary for development of the abnormal behavior, but catecholamine release is probably not related to hyperactivity.
Measurement of the motility after administration of test drugs to 5-HTP-pretreated mice is therefore used as a test for 5-HT-potentiation, which most probably proceeds through an inhibition of 5-HT uptake.
Female mice of the NMRI strain weighing 20-22 g are used. The controls receive 5-HTP 150 mg/kg (15 ml/kg) i.p. (i.p.=intraperitoneally) and thirty (30) minutes later physiological saline (20 ml/kg) s.c. (s.c.=subcutaneously). The motility is measured by an Animex™ motimeter 45-75 minutes after 5-HTP administration. The test animals received test substance s.c. (20 ml/kg) instead of physiological saline. Five groups of two (2) mice are used for control and per dose of each test drug. the test substance is dosed according to the dose scale 1, 1.6, 2.5, 4, 6.3, and 10 mg/kg etc. The highest dose tested is about ten (10) percent of LD50.
The activity of the test animals is compared to the activity of controls. […]

The structures appear in SMILES notation.

Take `Fc1ccc([C@@H]2CCNC[C@H]2COc2ccc3c(c2)OCO3)cc1` (single isomer, unassigned) [FG 7051, reference compound]: the ED50 worked out at 1.7 mg/kg.
